This note sets out measurements from patent publication US11517729B2, “Integrated fiber microneedle device for drug and vaccine delivery” (University of Washington, priority 2018, dated 2022).

A short description of the data set: Release studies of integrated fiber microneedles in PBS. It counts as physicochemical. The method, then: A small molecule drug, a model protein, and plasmid DNA were loaded into individual devices and the release kinetics of each were measured. These agents were loaded into an array of 420 needles, with a total device size of 4.2 cm^2. In this experiment, the needles were 350 μm in diameter and 800 μm tall. […] Each agent was successfully loaded into the fiber-microneedle system using a loading of 100 μg for the small molecule, […] for the protein, and 1.1 μg for the DNA. […] This plateau occurred at different percent release for the different agents. The small molecule plateaued at 70% release, the protein plateaued at 35% release, and the plasmid DNA plateaued around 80% release. […]
Data represent release from a single array of integrated fiber microneedles. Complete (100%) release was determined by TFV detected in release media after 84 days. […] Complete (100%) release was determined by the theoretical encapsulation of BSA in the iFMD. […] 100% release was determined by DNA detected in release media after 25 days.
Microneedle characterization: SEM imaging of electrospun fibers on the two-layer composite microneedle molds and completed microneedles was performed on a JEOL JSM7400F cold field emission scanning electron microscope. […] TFV content was determined by HPLC (Shimadzu Prominence LC20AD UV-HPLC) with a Phenomenex Luna 153 C18 column and LCSolutions software. […]

As for bovine serum albumin [BSA], under “BSA from integrated fiber microneedles into PBS, BCA assay, 100% = theoretical encapsulation, two replicates”, the “plateau of percent release” value is 35%. For the same substance, the release profile entry (from integrated fiber microneedles (array of 420 needles) into PBS) was “sharp initial burst release followed by a plateau”.
